Values of other authors, collected in patent publication US12070523B2, “Sanitization of an article using in situ electrolysis” (APPLIED BIOCIDE GMBH, priority 2022, dated 2024).
Read-outs that look alike come from different tables or passages of the source.

[O-][Cl+2]([O-])O [chlorate]
Arfd (acute reference dose) (as ClO3^−): 0.0024 mg/kg BW·day | ADI (allowable daily intake) (as NaClO3): 0.003 mg/kg BW·day | Arfd (acute reference dose) (as NaClO3): 0.003 mg/kg BW·day
